Our source for the Ratio and Ratio IC50 values is ChEMBL document CHEMBL4613325, “Design of Development Candidate eFT226, a First in Class Inhibitor of Eukaryotic Initiation Factor 4A RNA Helicase” (J Med Chem, 2020).

Amino acid sequences for entries named in this document (tags omitted).
UniProt P60842, whole entry: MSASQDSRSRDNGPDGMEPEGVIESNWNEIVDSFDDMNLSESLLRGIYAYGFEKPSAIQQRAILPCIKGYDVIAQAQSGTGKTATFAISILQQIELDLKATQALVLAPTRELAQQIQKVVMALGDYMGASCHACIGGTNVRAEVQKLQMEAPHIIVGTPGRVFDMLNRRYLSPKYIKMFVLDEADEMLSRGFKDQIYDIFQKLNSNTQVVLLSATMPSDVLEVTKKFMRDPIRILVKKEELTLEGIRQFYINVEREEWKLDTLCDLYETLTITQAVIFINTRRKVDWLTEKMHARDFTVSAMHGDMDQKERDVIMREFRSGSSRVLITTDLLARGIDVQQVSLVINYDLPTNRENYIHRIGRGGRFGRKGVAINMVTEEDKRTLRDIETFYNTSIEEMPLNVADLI

Assay [1] concerns the target Eukaryotic initiation factor 4A-I (Homo sapiens, UniProt P60842). Put plainly: Ratio of half life for binding affinity to full length recombinant eIF4A1 (unknown origin) assessed as induction ternary complex formation in presence of AGAGAG by measuring half life for AGAGAG + AMP-PNP complex formation SPR assay to half life for binding affinity to full length recombinant eIF4A1 (unknown origin) assessed as induction ternary complex formation in presence of AGAGAG by measuring half life for AGAGAG + ATP complex formation SPR assay. (In general: In SPR one partner is held on a chip, and binding of the other changes the refractive index at the surface.)

For a further assay, the species on record is Homo sapiens. The experiment in a line: Selectivity index, ratio of IC50 for inhibition of eIF4A1 F163L mutant in human HAP1 cells assessed as reduction in cell proliferation incubated for 72 hrs by CellTiter-Glo reagent based assay to IC50 for inhibition of eIF4A1 in human HAP1 cells assessed as reduction in cell proliferation incubated for 72 hrs by CellTiter-Glo reagent based assay. In general terms: In ATP-based viability assays light output follows the ATP content of the culture.

Take `COc1cc2c(c(OC)n1)[C@]1(O)[C@H](O)[C@H](CN(C)C)[C@@H](c3ccccc3)[C@]1(c1ccc(C#N)cc1)O2`: in assay [1], the Ratio was 30. Moreover, the Ratio IC50 in the assay listed under Homo sapiens is 60.
